Paper PMC9604285, “Rat Group IIA Secreted Phospholipase A2 Binds to Cytochrome c Oxidase and Inhibits Its Activity: A Possible Episode in the Development of Alzheimer’s Disease” (International Journal of Molecular Sciences, 2022)

Columns and labels:
[1] = biological target: subunit II of cytochrome c oxidase (CCOX-II) (porcine (endogenous in cerebral cortex)) (UniProt P50667); experiment: cross-linking
[2] = biological target: T1, subunit II of cytochrome c oxidase (CCOX-II) (porcine (endogenous in cerebral cortex), UniProt P50667 1-228); experiment: cross-linking; details: one partner purified
T1 construct: also called CCOX subunit II; 25 kDa receptor

Row | Molecule | IC50 [1] [nM] | IC50 [2] [nM]
1 | rGIIA(D49S), enzymatically inactive mutant of recombinant rat GIIA (enzyme) | 2200 | 
2 | recombinant rat group IIA secreted phospholipase A2 (rGIIA) (enzyme, UniProt P14423 22-146, looked up, also called rat GIIA; rGIIA-CHS (coupled to CH-Sepharose)) SLLEFGQMILFKTGKRADVSYGFYGCHCGVGGRGSPKDATDWCCVTHDCCYNRLEKRGCGTKFLTYKFSYRGGQISCSTNQDSCRKQLCQCDKAAAECFARNKKSYSLKYQFYPNKFCKGKTPSC |  | 1200
